{"source": "PubChem BioAssay (NCI)", "test_in_all_cases": "NCI anticancer screen, dose series, 48 h", "key": {"SF-295 CNS": {"system": "SF-295 CNS"}, "IGROV1 ovarian": {"system": "IGROV1 ovarian"}, "UACC-62 melanoma": {"system": "UACC-62 melanoma"}, "OVCAR-4 ovarian": {"system": "OVCAR-4 ovarian"}, "MCF7 breast": {"system": "MCF7 breast"}, "SW-620 colon": {"system": "SW-620 colon"}, "M14 melanoma": {"system": "M14 melanoma"}, "T-47D breast": {"system": "T-47D breast"}, "COLO 205 colon": {"system": "COLO 205 colon"}, "UO-31 renal": {"system": "UO-31 renal"}, "MOLT-4 leukemia": {"system": "MOLT-4 leukemia"}, "BT-549 breast": {"system": "BT-549 breast"}, "NCI-H322M lung": {"system": "NCI-H322M lung"}, "A549 NSCLC": {"system": "A549 NSCLC"}, "ACHN renal": {"system": "ACHN renal"}, "NCI/ADR-RES ovarian": {"system": "NCI/ADR-RES ovarian"}, "HCC-2998 colon": {"system": "HCC-2998 colon"}, "SF-268 CNS": {"system": "SF-268 CNS"}, "SR leukemia": {"system": "SR leukemia"}, "LOX IMVI melanoma": {"system": "LOX IMVI melanoma"}, "SF-539 CNS": {"system": "SF-539 CNS"}, "SK-OV-3 ovarian": {"system": "SK-OV-3 ovarian"}, "KM12 colon": {"system": "KM12 colon"}, "TK-10 renal": {"system": "TK-10 renal"}, "DU-145 prostate": {"system": "DU-145 prostate"}, "SK-MEL-2 melanoma": {"system": "SK-MEL-2 melanoma"}, "U251 CNS": {"system": "U251 CNS"}, "UACC-257 melanoma": {"system": "UACC-257 melanoma"}, "SK-MEL-28 melanoma": {"system": "SK-MEL-28 melanoma"}, "MALME-3M melanoma": {"system": "MALME-3M melanoma"}, "OVCAR-3 ovarian": {"system": "OVCAR-3 ovarian"}, "OVCAR-8 ovarian": {"system": "OVCAR-8 ovarian"}, "OVCAR-5 ovarian": {"system": "OVCAR-5 ovarian"}, "PC-3 prostate": {"system": "PC-3 prostate"}, "EKVX NSCLC": {"system": "EKVX NSCLC"}, "NCI-H226 lung": {"system": "NCI-H226 lung"}, "MDA-MB-435": {"system": "MDA-MB-435"}, "NCI-H23 lung": {"system": "NCI-H23 lung"}, "SNB-19 CNS": {"system": "SNB-19 CNS"}, "HCT-15 colon": {"system": "HCT-15 colon"}, "HCT-116 colon": {"system": "HCT-116 colon"}, "786-0 renal": {"system": "786-0 renal"}, "CAKI-1 renal": {"system": "CAKI-1 renal"}, "RPMI-8226 leukemia": {"system": "RPMI-8226 leukemia"}, "K-562 leukemia": {"system": "K-562 leukemia"}, "NCI-H460 lung": {"system": "NCI-H460 lung"}, "HT29 colon": {"system": "HT29 colon"}, "MDA-MB-231 breast": {"system": "MDA-MB-231 breast"}}, "note": "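Each compound was tested at five concentrations against cells in 96-well plates for 48 hours. GI50: concentration for 50% inhibition of growth. Definition used: TGI = concentration required for complete inhibition of growth.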", "data": [{"smiles": "CCP1(=S)OC(C)CCN1C(C)C", "note": "(stereo unspecified)", "values": [{"measurement": "GI50", "setting": "SF-295 CNS", "value": 28.9, "unit": "µM"}, {"measurement": "TGI", "setting": "SF-295 CNS", "value": 70.2, "unit": "µM"}, {"measurement": "GI50", "setting": "IGROV1 ovarian", "value": "> 100", "unit": "µM"}, {"measurement": "TGI", "setting": "IGROV1 ovarian", "value": "> 100", "unit": "µM"}, {"measurement": "GI50", "setting": "UACC-62 melanoma", "value": 17.4, "unit": "µM"}, {"measurement": "TGI", "setting": "UACC-62 melanoma", "value": 42.2, "unit": "µM"}, {"measurement": "GI50", "setting": "OVCAR-4 ovarian", "value": 77.9, "unit": "µM"}, {"measurement": "TGI", "setting": "OVCAR-4 ovarian", "value": "> 100", "unit": "µM"}, {"measurement": "GI50", "setting": "MCF7 breast", "value": 22.9, "unit": "µM"}, {"measurement": "TGI", "setting": "MCF7 breast", "value": 57.3, "unit": "µM"}, {"measurement": "GI50", "setting": "SW-620 colon", "value": 12.7, "unit": "µM"}, {"measurement": "TGI", "setting": "SW-620 colon", "value": 63.2, "unit": "µM"}, {"measurement": "GI50", "setting": "M14 melanoma", "value": 61.4, "unit": "µM"}, {"measurement": "TGI", "setting": "M14 melanoma", "value": "> 100", "unit": "µM"}, {"measurement": "GI50", "setting": "T-47D breast", "value": 23.4, "unit": "µM"}, {"measurement": "TGI", "setting": "T-47D breast", "value": 63.9, "unit": "µM"}, {"measurement": "GI50", "setting": "COLO 205 colon", "value": 88.3, "unit": "µM"}, {"measurement": "TGI", "setting": "COLO 205 colon", "value": "> 100", "unit": "µM"}, {"measurement": "GI50", "setting": "UO-31 renal", "value": 96.6, "unit": "µM"}, {"measurement": "TGI", "setting": "UO-31 renal", "value": "> 100", "unit": "µM"}, {"measurement": "GI50", "setting": "MOLT-4 leukemia", "value": 18.8, "unit": "µM"}, {"measurement": "TGI", "setting": "MOLT-4 leukemia", "value": 43.5, "unit": "µM"}, {"measurement": "GI50", "setting": "BT-549 breast", "value": "> 100", "unit": "µM"}, {"measurement": "TGI", "setting": "BT-549 breast", "value": "> 100", "unit": "µM"}, {"measurement": "GI50", "setting": "NCI-H322M lung", "value": "> 100", "unit": "µM"}, {"measurement": "TGI", "setting": "NCI-H322M lung", "value": "> 100", "unit": "µM"}, {"measurement": "GI50", "setting": "A549 NSCLC", "value": 37.2, "unit": "µM"}, {"measurement": "TGI", "setting": "A549 NSCLC", "value": "> 100", "unit": "µM"}, {"measurement": "GI50", "setting": "ACHN renal", "value": 7.47, "unit": "µM"}, {"measurement": "TGI", "setting": "ACHN renal", "value": "> 100", "unit": "µM"}, {"measurement": "GI50", "setting": "NCI/ADR-RES ovarian", "value": "> 100", "unit": "µM"}, {"measurement": "TGI", "setting": "NCI/ADR-RES ovarian", "value": "> 100", "unit": "µM"}, {"measurement": "GI50", "setting": "HCC-2998 colon", "value": 33.5, "unit": "µM"}, {"measurement": "TGI", "setting": "HCC-2998 colon", "value": "> 100", "unit": "µM"}, {"measurement": "GI50", "setting": "SF-268 CNS", "value": 73.7, "unit": "µM"}, {"measurement": "TGI", "setting": "SF-268 CNS", "value": "> 100", "unit": "µM"}, {"measurement": "GI50", "setting": "SR leukemia", "value": 21.4, "unit": "µM"}, {"measurement": "TGI", "setting": "SR leukemia", "value": 49.4, "unit": "µM"}, {"measurement": "GI50", "setting": "LOX IMVI melanoma", "value": 33.8, "unit": "µM"}, {"measurement": "TGI", "setting": "LOX IMVI melanoma", "value": "> 100", "unit": "µM"}, {"measurement": "GI50", "setting": "SF-539 CNS", "value": "> 100", "unit": "µM"}, {"measurement": "TGI", "setting": "SF-539 CNS", "value": "> 100", "unit": "µM"}, {"measurement": "GI50", "setting": "SK-OV-3 ovarian", "value": "> 100", "unit": "µM"}, {"measurement": "TGI", "setting": "SK-OV-3 ovarian", "value": "> 100", "unit": "µM"}, {"measurement": "GI50", "setting": "KM12 colon", "value": 30.7, "unit": "µM"}, {"measurement": "TGI", "setting": "KM12 colon", "value": "> 100", "unit": "µM"}, {"measurement": "GI50", "setting": "TK-10 renal", "value": 66.5, "unit": "µM"}, {"measurement": "TGI", "setting": "TK-10 renal", "value": "> 100", "unit": "µM"}, {"measurement": "GI50", "setting": "DU-145 prostate", "value": 43.4, "unit": "µM"}, {"measurement": "TGI", "setting": "DU-145 prostate", "value": "> 100", "unit": "µM"}, {"measurement": "GI50", "setting": "SK-MEL-2 melanoma", "value": 25.9, "unit": "µM"}, {"measurement": "TGI", "setting": "SK-MEL-2 melanoma", "value": 55.4, "unit": "µM"}, {"measurement": "GI50", "setting": "U251 CNS", "value": 43.7, "unit": "µM"}, {"measurement": "TGI", "setting": "U251 CNS", "value": "> 100", "unit": "µM"}, {"measurement": "GI50", "setting": "UACC-257 melanoma", "value": 23.1, "unit": "µM"}, {"measurement": "TGI", "setting": "UACC-257 melanoma", "value": "> 100", "unit": "µM"}, {"measurement": "GI50", "setting": "SK-MEL-28 melanoma", "value": 5.03, "unit": "µM"}, {"measurement": "TGI", "setting": "SK-MEL-28 melanoma", "value": 18.6, "unit": "µM"}, {"measurement": "GI50", "setting": "MALME-3M melanoma", "value": 59.9, "unit": "µM"}, {"measurement": "TGI", "setting": "MALME-3M melanoma", "value": "> 100", "unit": "µM"}, {"measurement": "GI50", "setting": "OVCAR-3 ovarian", "value": 32.9, "unit": "µM"}, {"measurement": "TGI", "setting": "OVCAR-3 ovarian", "value": "> 100", "unit": "µM"}, {"measurement": "GI50", "setting": "OVCAR-8 ovarian", "value": 89.6, "unit": "µM"}, {"measurement": "TGI", "setting": "OVCAR-8 ovarian", "value": "> 100", "unit": "µM"}, {"measurement": "GI50", "setting": "OVCAR-5 ovarian", "value": 78.7, "unit": "µM"}, {"measurement": "TGI", "setting": "OVCAR-5 ovarian", "value": "> 100", "unit": "µM"}, {"measurement": "GI50", "setting": "PC-3 prostate", "value": 28.4, "unit": "µM"}, {"measurement": "TGI", "setting": "PC-3 prostate", "value": "> 100", "unit": "µM"}, {"measurement": "GI50", "setting": "EKVX NSCLC", "value": 65.4, "unit": "µM"}, {"measurement": "TGI", "setting": "EKVX NSCLC", "value": "> 100", "unit": "µM"}, {"measurement": "GI50", "setting": "NCI-H226 lung", "value": "> 100", "unit": "µM"}, {"measurement": "TGI", "setting": "NCI-H226 lung", "value": "> 100", "unit": "µM"}, {"measurement": "GI50", "setting": "MDA-MB-435", "value": 42.1, "unit": "µM"}, {"measurement": "TGI", "setting": "MDA-MB-435", "value": "> 100", "unit": "µM"}, {"measurement": "GI50", "setting": "NCI-H23 lung", "value": 80.9, "unit": "µM"}, {"measurement": "TGI", "setting": "NCI-H23 lung", "value": "> 100", "unit": "µM"}, {"measurement": "GI50", "setting": "SNB-19 CNS", "value": 87, "unit": "µM"}, {"measurement": "TGI", "setting": "SNB-19 CNS", "value": "> 100", "unit": "µM"}, {"measurement": "GI50", "setting": "HCT-15 colon", "value": 66.7, "unit": "µM"}, {"measurement": "TGI", "setting": "HCT-15 colon", "value": "> 100", "unit": "µM"}, {"measurement": "GI50", "setting": "HCT-116 colon", "value": 36.2, "unit": "µM"}, {"measurement": "TGI", "setting": "HCT-116 colon", "value": "> 100", "unit": "µM"}, {"measurement": "GI50", "setting": "786-0 renal", "value": 62.6, "unit": "µM"}, {"measurement": "TGI", "setting": "786-0 renal", "value": "> 100", "unit": "µM"}, {"measurement": "GI50", "setting": "CAKI-1 renal", "value": 64.6, "unit": "µM"}, {"measurement": "TGI", "setting": "CAKI-1 renal", "value": "> 100", "unit": "µM"}, {"measurement": "GI50", "setting": "RPMI-8226 leukemia", "value": 30.6, "unit": "µM"}, {"measurement": "TGI", "setting": "RPMI-8226 leukemia", "value": 68.5, "unit": "µM"}, {"measurement": "GI50", "setting": "K-562 leukemia", "value": 32.6, "unit": "µM"}, {"measurement": "TGI", "setting": "K-562 leukemia", "value": "> 100", "unit": "µM"}, {"measurement": "GI50", "setting": "NCI-H460 lung", "value": 65.1, "unit": "µM"}, {"measurement": "TGI", "setting": "NCI-H460 lung", "value": "> 100", "unit": "µM"}, {"measurement": "GI50", "setting": "HT29 colon", "value": 40.9, "unit": "µM"}, {"measurement": "TGI", "setting": "HT29 colon", "value": "> 100", "unit": "µM"}, {"measurement": "GI50", "setting": "MDA-MB-231 breast", "value": 76.8, "unit": "µM"}, {"measurement": "TGI", "setting": "MDA-MB-231 breast", "value": "> 100", "unit": "µM"}]}]}
